Structures are written as SMILES.

Chains of the proteins cited; added tags and fusions are not shown.
UniProt P28223, whole entry: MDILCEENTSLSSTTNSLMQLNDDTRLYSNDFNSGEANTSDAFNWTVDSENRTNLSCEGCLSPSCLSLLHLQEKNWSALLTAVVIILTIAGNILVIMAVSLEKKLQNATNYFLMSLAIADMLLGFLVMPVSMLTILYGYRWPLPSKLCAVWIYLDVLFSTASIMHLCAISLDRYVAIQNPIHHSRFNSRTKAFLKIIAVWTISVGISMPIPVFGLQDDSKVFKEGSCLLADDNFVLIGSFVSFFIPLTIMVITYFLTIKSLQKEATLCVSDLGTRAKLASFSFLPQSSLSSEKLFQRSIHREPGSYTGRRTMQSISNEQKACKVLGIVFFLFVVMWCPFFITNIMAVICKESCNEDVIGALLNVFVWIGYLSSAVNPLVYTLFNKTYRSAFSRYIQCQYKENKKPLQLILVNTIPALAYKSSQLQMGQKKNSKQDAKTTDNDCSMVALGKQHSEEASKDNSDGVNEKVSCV

The test concerns the target T1, human cloned 5-HT2A receptor, expressed in L929 cells (Homo sapiens, UniProt P28223).
T1 construct: expressed in transfected cells; host or cells: L929 cells
Briefly: In vitro binding affinity for 5-HT2A receptor ([125I]R91150 radioligand binding). Particulars: 5-HT2A pIC50, human cloned 5-HT2A receptor in L929 cells. The procedure:
In Vitro Binding Affinity for 5-HT2A and 5-HT2C Receptors
The interaction of the compounds of Formula (I) with 5-HT2A and 5-HT2C receptors was assessed in in vitro radioligand binding experiments. […] During the incubation, the radioligands bind to the receptor. When equilibrium of binding is reached, the receptor bound radioactivity is separated from the non-bound radioactivity, and the receptor bound activity is counted. The interaction of the test compounds with the receptors is assessed in competition binding experiments. Various concentrations of the test compound are added to the incubation mixture containing the tissue preparation and the radioligand. Binding of the radioligand will be inhibited by the test compound in proportion to its binding affinity and its concentration. The affinities of the compounds for the 5-HT2 receptors were measured by means of radioligand binding studies conducted with: (a) human cloned 5-HT2A receptor, expressed in L929 cells using [^125I]R91150 as radioligand and (b) human cloned 5-HT2C receptor, expressed in CHO cells using [^3H]mesulergine as radioligand.
The results are given in Table 8 below in terms of pIC50 values for the respective compounds.
Take `O=C(Cc1cccs1)NC1CCN(CC2CC3c4ccccc4Cc4ccc(F)cc4C3O2)CC1` (stereo not drawn) [Compound 240]: the IC50 was 3.16 nM. This counts as single-digit nanomolar. For `OCCC1CCCN(CC2CC3c4ccccc4Cc4ccc(F)cc4C3O2)C1` (mixture of isomers) [Compound 152], the IC50 is 1.86 nM.

Molecule `CC(=O)OC1CCN(C[C@H]2C[C@@H]3c4ccccc4Cc4ccc(F)cc4[C@@H]3O2)CC1` [Compound 166] gave an IC50 of 0.871 nM. Compared with the last molecule, the IC50 is about 2.1-fold lower.

Molecule `O=C(O)C1CCN(C[C@H]2C[C@@H]3c4ccccc4Cc4ccc(F)cc4[C@@H]3O2)CC1` [Compound 157] showed an IC50 of 12.3 nM.

The molecule `O=C(NCc1cccs1)C1CCN(CC2CC3c4ccccc4Cc4ccc(F)cc4C3O2)CC1` (stereo not drawn) [Compound 195] gave an IC50 of 0.813 nM. Molecule `CCOC(=O)C1CCN(C[C@H]2C[C@@H]3c4ccccc4Cc4ccc(F)cc4[C@@H]3O2)CC1` [Compound 162] showed an IC50 of 1.12 nM. As for `O=C(NC1CCN(CC2CC3c4ccccc4Cc4ccc(F)cc4C3O2)CC1)NC1CC1c1ccccc1` (mixture of isomers) [Compound 246], the figure is 1.29 nM; as for `O=C(NCc1cccc(C(F)(F)F)c1)C1CCN(CC2CC3c4ccccc4Cc4ccc(F)cc4C3O2)CC1` (stereo not drawn) [Compound 182], 4.27 nM; as for `CC(C)c1ccccc1NC(=O)C1CCN(CC2CC3c4ccccc4Cc4ccc(F)cc4C3O2)CC1` (stereo not drawn) [Compound 185], 3.63 nM.

In turn, `O=C(CSc1ccccc1)NC1CCN(CC2CC3c4ccccc4Cc4ccc(F)cc4C3O2)CC1` (stereo not drawn) [Compound 241] had a concentration for half-maximal inhibition (IC50) of 5.13 nM. `O=C(NCc1cccc(I)c1)C1CCN(CC2CC3c4ccccc4Cc4ccc(F)cc4C3O2)CC1` (stereo not drawn) [Compound 196] showed an IC50 of 3.63 nM. As for `N#CC1(c2ccccc2)CCN(C(=O)C2CCN(CC3CC4c5ccccc5Cc5ccc(F)cc5C4O3)CC2)CC1` (stereo not drawn) [Compound 208], the half-maximal inhibitory concentration (IC50) is 4.07 nM. `CCOC(=O)CC1CCN(CC2CC3c4ccccc4Cc4ccc(F)cc4C3O2)CC1` (stereo not drawn) [Compound 164, [2R-(2α, 3aα, 12bβ)][1-(11-fluoro-3,3a,8,12b-tetrahydro-2H-1-oxa-dibenzo[e,h]-azulen-2-ylmethyl)-piperidin-4-yl]-acetic acid ethyl ester.oxalate (1:1)] gave an IC50 of 2.34 nM. Consider `OC1CCCN(CC2CC3c4ccccc4Cc4ccc(F)cc4C3O2)C1` (single isomer, unassigned) [Compound 142], for which the IC50 was 0.575 nM. `CC(C)(C)OC(=O)N1CCN(C(=O)C2CCN(CC3CC4c5ccccc5Cc5ccc(F)cc5C4O3)CC2)CC1` (stereo not drawn) [Compound 206] had an IC50 of 2.45 nM. This IC50 lies about 4.3-fold higher than the previous one. As for `O=C(NC1CCN(CC2CC3c4ccccc4Cc4ccc(F)cc4C3O2)CC1)c1ccccc1Br` (stereo not drawn) [Compound 226], the figure is 2 nM; as for `O=C(Nc1ccccc1)NC1CCN(CC2CC3c4ccccc4Cc4ccc(F)cc4C3O2)CC1` (stereo not drawn) [Compound 247], 0.871 nM; as for `O=C(Nc1ccccc1F)C1CCN(CC2CC3c4ccccc4Cc4ccc(F)cc4C3O2)CC1` (stereo not drawn) [Compound 189], below 10 nM. Turning to `CCOC(=O)C1CCCN(C[C@H]2C[C@@H]3c4ccccc4Cc4ccc(F)cc4[C@@H]3O2)C1` (stereo partly drawn) [Compound 160], the IC50 is 5.01 nM. Molecule `OC1CCCN(CC2CC3c4ccccc4Cc4ccc(F)cc4C3O2)C1` (single isomer, unassigned) [Compound 143] showed an IC50 of 1.35 nM. This IC50 is about 3.7-fold lower than that of the molecule before. Molecule `O=C(NC1CCN(CC2CC3c4ccccc4Cc4ccc(F)cc4C3O2)CC1)c1ccccc1F` (stereo not drawn) [Compound 232] showed an IC50 of 2.51 nM.

`Cc1cccc(C(=O)NC2CCN(CC3CC4c5ccccc5Cc5ccc(F)cc5C4O3)CC2)c1` (stereo not drawn) [Compound 225]: the IC50 is 3.09 nM.

The molecule `O=C(NC1CCN(CC2CC3c4ccccc4Cc4ccc(F)cc4C3O2)CC1)c1ccccc1Cl` (stereo not drawn) [Compound 227] gave an IC50 of 2.34 nM.

As for `O=C(NCc1ccccn1)C1CCN(CC2CC3c4ccccc4Cc4ccc(F)cc4C3O2)CC1` (stereo not drawn) [Compound 197], the IC50 was 0.417 nM. On to `OCC1CCN(CC2CC3c4ccccc4Cc4ccc(F)cc4C3O2)CC1` (stereo not drawn) [Compound 151], for which the IC50 was 0.912 nM. On to `Cn1cccc1C(=O)NC1CCN(CC2CC3c4ccccc4Cc4ccc(F)cc4C3O2)CC1` (stereo not drawn) [Compound 221], for which the IC50 was 1.7 nM. Regarding `OC1CCN(C[C@H]2C[C@@H]3c4ccccc4Cc4ccc(F)cc4[C@@H]3O2)CC1` [Compound 144, [2R-(2α, 3aα, 12bβ)]1-(11-fluoro-3,3a,8,12b-tetrahydro-2H-1-oxa-dibenzo[e,h]azulen-2-ylmethyl)-piperidin-4-ol.oxalate (1:1)], the IC50 is 0.676 nM. `O=C(C1CCN(CC2CC3c4ccccc4Cc4ccc(F)cc4C3O2)CC1)N1CC=C(c2ccccc2)CC1` (stereo not drawn) [Compound 207] had an IC50 of 5.5 nM. As to `O=C(NCc1ccco1)C1CCN(CC2CC3c4ccccc4Cc4ccc(F)cc4C3O2)CC1` (stereo not drawn) [Compound 194], the IC50 is 0.468 nM.

Molecule `OC1CCCN(CC2CC3c4ccccc4Cc4ccc(F)cc4C3O2)C1` (racemic) [Compound 141] showed an IC50 of 1.02 nM.

The values above are taken from patent US8569267B2, “Tetracyclic tetrahydrofuran derivatives containing cyclic amine side chain” (Janssen Pharmaceutica, NV, priority 2005, dated 2013).
